# Binding of CDR-mutated scFvs to a peptide of the spike HR2 region

The target is the same throughout: PDVDLGDISGINAS, from the HR2 region of SARS-CoV-2 spike.

Parent scFv Ab-95: VH joined to VL by the linker GGGGSGGGGSGGGGS. Changes lie in the light chain CDRs alone.
VH: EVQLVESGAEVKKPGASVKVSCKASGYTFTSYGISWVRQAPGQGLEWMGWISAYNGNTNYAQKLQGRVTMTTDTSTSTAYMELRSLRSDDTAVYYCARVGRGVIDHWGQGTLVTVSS
VL: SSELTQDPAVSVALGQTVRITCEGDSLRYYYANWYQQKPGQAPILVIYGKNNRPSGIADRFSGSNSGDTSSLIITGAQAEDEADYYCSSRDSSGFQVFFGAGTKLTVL

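AAYL52 was designed without a model: most single CDR substitutions and a random sample of double and triple ones. In AlphaSeq, yeast of one mating type display the scFv and yeast of the other type display the target. Mating (16 h, 30 °C) was followed by selection of diploids and sequencing of their barcodes. Scores were corrected for input abundance and mapped to Kd with protein pairs of known affinity run in the same pool. Mating was done three times.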

Each variant is given by its three light chain CDRs, as the data file delimits them; those of the parent are EGDSLRYYYAN, GKNNRPS, SSRDSSGFQVF. Values are apparent Kd, the geometric mean of the replicates that gave a signal; lower means stronger binding. "no signal" means that the variant was in the library but no mating with the target was seen in any replicate; the authors take this as a sign of poor binding, and no number exists.

CDR-L1	CDR-L2	CDR-L3	Kd	seen in	empty controls
EGDSLRYYYAN	GKNNRPS	SSYDSSNIQVF	500 nM	3 of 3	1 of 9
KGDSLRYYYAN	GKNHRPS	SSRDSSGFQPF	33 µM	2 of 3	5 of 9
EGDSLDYYYAN	GKNNRPS	SSNLSSGFQVF	600 nM	3 of 3	0 of 9
EEDSLRYYYAN	GNNNRPS	SSRDSDGFQVF	89 µM	1 of 3	2 of 9
EGDSRRYYNAN	GFNNRPS	SSRDSSGFQVF	3.6 µM	3 of 3	3 of 9
EGDSLRYYYAN	GKNNRPS	SSRDSGGFQVT	1.1 µM	3 of 3	0 of 9
EGDSLRYYYAN	GKNNRPS	SSRDQSGFEVF	290 nM	3 of 3	4 of 9
EGDKLRYYYAN	GKNNRVS	SHRDSSGFQVF	5.9 µM	2 of 3	3 of 9
GGDSLRYYYAN	GKNNRPP	MSRDSSGFQVF	59 nM	3 of 3	5 of 9
EGDSLRYDYAN	GKNNRPS	SSRDNSGFVVF	2.1 µM	1 of 3	0 of 9
EGDSLRSYYAN	GKNNRPS	DSRDSSGWQVF	1.0 µM	3 of 3	2 of 9
EGDSLRYYSAN	GKNNRPS	DSRDSSYFQVF	63 µM	1 of 3	1 of 9
EGDSLRYYYAN	GKNNRPS	SSRDNSSFQEF	no signal	0 of 3	1 of 9
EGDSLRYYYAL	GKNNRPS	DSRDFSGFQVF	4.4 µM	2 of 3	1 of 9
EGDSWRYYYAN	GKNFRPS	SSRDSSGFQVR	no signal	0 of 3	1 of 9
EGDSLRYYERN	GKNNRPS	SSRDSSGFQRF	2.7 µM	3 of 3	5 of 9
EGDNLRYYYAN	GENNRPS	SSRDSSGFQVF	390 nM	3 of 3	4 of 9
EGDSLWYYYAN	GKNNRPS	SSQDISGFQVF	21 µM	1 of 3	1 of 9
EGDSTRYYYHN	GKFNRPS	SSRDSSGFQVF	no signal	0 of 3	0 of 9
EGDSLRYYYAN	GKDNRPS	SQRDSSKFQVF	4.5 µM	3 of 3	2 of 9
EGDKLRYYYAN	GKNNRPS	SSVSSSGFQVF	no signal	0 of 3	5 of 9
EGDSLRYYYAN	YKNNRPK	SSRDHSGFQVF	28 µM	3 of 3	2 of 9
EGDSLRYYYAN	VKNLRPS	SSRDSSGFQVF	no signal	0 of 3	2 of 9
NGDSNRYYYAN	GKTNRPS	SSRDSSGFQVF	4.5 µM	2 of 3	1 of 9
EGDSLRYYYAN	GKNNETS	SSRDSSGFQCF	no signal	0 of 3	2 of 9
EGDSLKYYYAN	GKNKRHS	SSRDSSGFQVF	740 nM	3 of 3	2 of 9
EGDSLRYPYAN	GKHNRPS	SNRDSSGFQVF	1.7 µM	3 of 3	6 of 9
EGDSLRYYYAS	GHNNRPS	SSCDSSGFQVF	2.2 µM	2 of 3	5 of 9
EGDSLRYYYAN	GKNNRPS	SSRDSIKFQVF	210 nM	3 of 3	0 of 9
EGDCLRYYYAK	GKNNRPS	SERDSSGFQVF	25 µM	2 of 3	2 of 9
EGDSLRYYYAN	GKNNRPS	SSDDLSGFHVF	1.9 µM	3 of 3	4 of 9
EGDSLRYYYAN	GKNYRPS	DSRDSSGFQVF	1.1 µM	3 of 3	3 of 9
EGDSLREYYAN	CKNNRPS	SSRDSSGFQHF	no signal	0 of 3	0 of 9
MGDSLPYYYAN	GKNNRPS	CSRDSSGFQVF	40 µM	2 of 3	2 of 9
VGDSLRYYYAN	GKNNRES	SSRVSSGFQVF	120 nM	3 of 3	0 of 9
DGDSLRYYYAN	GKNNRPS	SSRDSGGFQMF	13 µM	2 of 3	1 of 9
EGGSLRYYYAN	GKNNRPS	CSRDSSGFQVW	350 nM	3 of 3	4 of 9
GGDSLRYYYAN	GKINRPS	LSRDSSGFQVF	1.2 µM	1 of 3	0 of 9
EGDRLRYYYAN	GDNNRPS	HSRDSSGFQVF	43 µM	2 of 3	4 of 9
EGDSLRYYYAN	GKNDRPS	SEEDSSGFQVF	no signal	0 of 3	2 of 9
EGESLRYYQAN	GKNNRPS	SSRYSSGFQVF	30 nM	3 of 3	4 of 9
EGDSLRYYYAN	GKNARPP	SSRDSSGFQVS	2.8 µM	2 of 3	6 of 9
EWDSLRYYYAN	GKNNRPS	ASRDSEGFQVF	2.7 µM	1 of 3	3 of 9
EGTSLRYYYAN	GKNNRPS	SSRDSHGRQVF	640 nM	3 of 3	3 of 9
EGDSLRSYYRN	GKNNRPS	SSRDSSGFQVM	18 µM	2 of 3	2 of 9
EMESLRYYYAN	GKNIRPS	SSRDSSGFQVF	36 µM	2 of 3	1 of 9

Empty control strains, which show no peptide, gave a signal in 28% of pairings with library AAYL52; the median was 8.2 µM and 95% of these signals were weaker than 800 nM. No background was subtracted. The control count says in how many pairings with the empty strains this scFv gave a signal.

Data: MIT Lincoln Laboratory AlphaSeq set, Engelhart et al. 2022, doi:10.1038/s41597-022-01779-4, as distributed in FLAb.